Biological target: T1, URAT1 (SLC22A12) (Homo sapiens, UniProt Q96S37)
T1 sequence (Q96S37 1-553): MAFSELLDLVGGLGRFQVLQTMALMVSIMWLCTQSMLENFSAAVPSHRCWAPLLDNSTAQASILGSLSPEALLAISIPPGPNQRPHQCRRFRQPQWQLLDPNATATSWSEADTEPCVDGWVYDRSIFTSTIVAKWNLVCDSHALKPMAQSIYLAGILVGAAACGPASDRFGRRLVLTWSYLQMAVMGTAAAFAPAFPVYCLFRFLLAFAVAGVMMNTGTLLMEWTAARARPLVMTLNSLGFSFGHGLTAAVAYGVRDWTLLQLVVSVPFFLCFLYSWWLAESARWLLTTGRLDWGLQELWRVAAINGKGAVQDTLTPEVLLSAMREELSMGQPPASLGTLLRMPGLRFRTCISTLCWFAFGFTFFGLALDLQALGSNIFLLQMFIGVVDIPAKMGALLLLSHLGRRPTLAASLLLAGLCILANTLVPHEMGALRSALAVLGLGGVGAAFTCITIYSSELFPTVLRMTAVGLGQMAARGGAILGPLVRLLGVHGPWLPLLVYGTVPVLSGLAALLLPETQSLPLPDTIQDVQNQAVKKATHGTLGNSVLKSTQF
Conditions: verbal rating, both assays

CC(C)Sc1nc(O)c(C(=O)Nc2ccc(-c3c[nH]nn3)cc2)c(=O)[nH]1 [Formula (IId), N-(4-(1H-1,2,3-triazol-5-yl)phenyl)-4-hydroxy-2-(isopropylthio)-6-oxo-1,6-dihydropyrimidine-5-carboxamide]
bifunctional inhibition (URAT1 and xanthine oxidase): particularly effective bifunctional inhibitor

Reference: patent US20220024900A1, “Compounds and Their Use for Reducing Uric Acid Levels” (Acquist LLC, priority 2016, published 2022)
